## Reported logP (octanol/water) values for industrial, environmental and drug-like chemicals

Values as listed in the OPERA 2.9 repository of K. Mansouri.

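OPERA's authors assembled the values from existing databases and did not measure them anew. The files give a single number for a compound and property, which may rest on several reports. Method, purity and exact conditions of the single measurements are not given. The measured form (salt, isomer or mixture) is not always the one drawn. Some upstream entries may be estimates or bounds without being marked so.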

The octanol-water partition coefficient is given as log10; larger values mean a more lipophilic compound.
Cells with "n/a" have no entry in this list.

structure (SMILES),name,logP (octanol/water)
NNC(=O)CCCCC(=O)NN,Hexanedihydrazide,-2.05
NC(=O)N[C@H]1CC[C@H](NC(N)=O)CC1,"1,1'-(trans-1,4-Cyclohexanediyl)diurea",-1.45
C=C(C)C(=O)OCCCCCCOC(=O)C(=C)C,"1,6-Hexanediol dimethacrylate",4.08
CNCC(=O)N=C(C)O,N-(N-Methylglycyl)ethanimidic acid,-1.56
COC(=O)c1ccccc1OS(=O)(=O)c1ccc(C)cc1,Methyl 2-[(4-methylbenzene-1-sulfonyl)oxy]benzoate,1.8
CCCC1=CC(=O)OC1O (stereo not given),5-Hydroxy-4-propylfuran-2(5H)-one,0.6
CCN(c1ccccc1)S(=O)(=O)c1ccccc1/N=N/c1c(N)ccc2cc(S(=O)(=O)[O-])cc(O)c12.[Na+],n/a,-0.6
O=[N+]([O-])c1ccc(N=Nc2c(O)ccc3ccccc23)c([N+](=O)[O-])c1,C.I. Pigment Orange 5,2.45
C[C@]12CCC(=O)C=C1CC[C@@H]1[C@@H]2CC[C@@]2(C)[C@H]1CC[C@@]2(O)CCCO,(17beta)-17-Hydroxy-17-(3-hydroxypropyl)androst-4-en-3-one,2.51
CC(C)(C)c1ccc(O)c(O)c1,4-tert-Butylcatechol,2.86
C#CC(C)OC(=O)Nc1cccc(Cl)c1 (stereo not given),Chlorbufam,3.59
ClCCOCCOCCCl,"1,2-Bis(2-chloroethoxy)ethane",1.07
CCC(C)C,2-Methylbutane,4
Cc1ccc(Nc2ccc3c4c(cc(=O)n3C)-c3ccccc3C(=O)c24)cc1,n/a,4.689
CCC(C)c1cc(S(=O)(=O)[O-])cc(-n2nc3ccccc3n2)c1O.[Na+] (stereo not given),n/a,-0.24
CCOC(O)=NS(=O)(=O)c1ccc(C)cc1,Ethyl hydrogen (4-methylbenzene-1-sulfonyl)carbonimidate,1.7
CCCC(=O)OCCC(C)C,Isopentyl butyrate,3.99
C[Si](C)(C)N[Si](C)(C)C,Hexamethyldisilazane,1.205
CC(C)(C)NCC(O)COc1cccc2nc(O)[nH]c12 (stereo not given),n/a,1.3
CN1C(=O)CC(c2ccccc2)C1=O (stereo not given),Phensuximide,0.7
CCCC(C)C1OCC(C)(CCC)CO1 (stereo not given),"1,3-Dioxane, 5-methyl-2-(1-methylbutyl)-5-propyl-",5.745
CCC1(CC=C2CCCc3cc(OC)ccc32)C(=O)CCC1=O,n/a,4.3
CN1CCCCC1CCN1c2ccccc2Sc2ccc(S(C)(=O)=O)cc21 (racemic),n/a,4.45
CCCC(C)=NO[Si](ON=C(C)CCC)(ON=C(C)CCC)c1ccccc1,n/a,1.25
CC(c1ncncc1F)C(O)(Cn1cncn1)c1ccc(F)cc1F.CC1(C)C2CCC1(CS(=O)(=O)O)C(=O)C2 (stereo not given),n/a,1.73
COC(=O)C(C)(C)c1ccc(Br)cc1,"METHYL 2-(4-BROMOPHENYL)-2,2-DIMETHYLACETATE",3.73
CC(C)C(=O)OC(=O)C(C)C,Isobutyric anhydride,1.1
C=Cc1ccncc1,4-Vinylpyridine,1.36
COc1ccc(/C=C(\C#N)C(=O)OCC(C)(C)C2OCC3(CO2)COC(C(C)(C)COC(=O)/C(C#N)=C/c2ccc(OC)c(OC)c2)OC3)cc1OC (stereo partly drawn),n/a,6.3
Cc1ccc(S(=O)(=O)C(I)I)cc1,Diiodomethyl 4-methylphenyl sulfone,2.66
Cn1sccc1=O,2-Methyl-3(2H)-isothiazolone,-0.33
Nc1cccc(OC2(Oc3cccc(N)c3)C=CC(c3ccccc3)=CC2)c1,"3,3'-[[3,4-Dihydro-1,1'-biphenyl]-4,4-diylbis(oxy)]dianiline",3.2